Measured values: patent US20060079453A1, “Hla binding peptides and their uses” (priority 2002, published 2006)

What was measured:
[1] = target: HLA-DR DRB1*1302 (DR13) (Homo sapiens, UniProt P01903+P01911, A100E/A169T/K41T/L162R/M171V/P40S/Q125H/Q178H/Q39Y/Q99D/R42S/S66N/T262R/V115G/W38E/Y61H); experiment: biochemical; format: binding
[2] = target: HLA-DR DRB4*0101 (DR53) (Homo sapiens, UniProt P01903+P13762, G164S); experiment: biochemical; format: binding
[3] = target: HLA-DR DRB1*0101 (DR1) (Homo sapiens, UniProt P01903+P01911, A100R/D57E/F55L/F60I/F76Y/I96L/L162R/M171V/P40L/Q125E/R42F/V115G/Y59C); experiment: biochemical; format: binding
[4] = target: HLA-DR DRB1*0802 (DR8) (Homo sapiens, UniProt P01903+P01911, A100R/A103L/A169T/F76Y/H45Y/I96F/K41T/L162R/M171V/P40S/Q125H/Q178H/Q39Y/Q99D/R218S/R42G/S66Y/V115G/W38E); experiment: biochemical; format: binding
[5] = target: HLA-DR DRB1*0701 (DR7) (Homo sapiens, UniProt P01903+P01911, A100R/A102G/A103Q/D57E/D86V/E43K/F76Y/K127E/L162R/M171V/P40G/Q125H/Q99D/R33Q/R42Y/R54Q/S133A/S66F/T210M/V115G/Y107V/Y59L/Y89S); experiment: biochemical; format: binding; conditions: DRB1 *0701
[6] = target: HLA-DR DRB1*0901 (DR9) (Homo sapiens, UniProt P01903+P01911, A100R/A103E/D57H/D86V/F55Y/F60I/F76Y/I96F/K127E/L162R/M171V/P40D/Q125H/Q99R/R33Q/R42F/S133A/S66N/T210M/V115G/W38K/Y107V/Y59G/Y89S); experiment: biochemical; format: binding
[7] = target: HLA-DR DRB1*0301 (DR3) (Homo sapiens, UniProt P01903+P01911, A100K/A102G/A103R/A169T/F55Y/I96L/K41T/L162R/M171V/P40S/Q125H/Q178H/Q39Y/R42S/S66N/T106N/T262R/W38E/Y61H); experiment: biochemical; format: binding
[8] = target: HLA-A*3002 (Homo sapiens, UniProt P04439, D101N/D140H/D185E/E176R/F33S/G80R/H175R/K168Q/Q94H/R138E/R41S/V100E); format: binding
[9] = target: HLA-A*2902 (Homo sapiens, UniProt P04439, A270S/D101N/D185E/E176V/E277Q/E87Q/F33T/G231S/H175R/I121M/I218V/I322F/K168Q/L300P/L318F/M331R/P208A/P217A/Q86L/T323A/T345S/V100A/V358M); experiment: MHC molecular binding / Capture assay, IC50: A*2902
[10] = target: HLA-DR DRB1*0401 (DR4) (Homo sapiens, UniProt P01903+P01911, A100K/A169T/F76Y/I96L/K127E/L162R/M171V/N62H/P40V/Q125Y/R42H/S133A/S149N/S66Y/V115G/V209L/W38E); experiment: biochemical; format: binding; conditions: read-out: DRB1 *0401
[11] = read-out: Binding affinity to A*3002 (expressed as an IC50)
[12] = read-out: Binding affinity to A*2902 (expressed as an IC50)
[13] = read-out: A*3002 binding affinity (IC50)
[14] = read-out: A*2902 binding affinity (IC50)

CC[C@H](C)[C@H](NC(=O)[C@H](CO)NC(=O)[C@@H](NC(=O)[C@@H](NC(=O)[C@@H](NC(=O)[C@H](CCC(N)=O)NC(=O)[C@@H](N)CCC(=O)O)[C@@H](C)O)[C@@H](C)O)[C@@H](C)O)C(=O)N[C@H](C(=O)N[C@@H](CO)C(=O)N[C@@H](CC(C)C)C(=O)N[C@@H](Cc1ccc(O)cc1)C(=O)N[C@@H](CCC(N)=O)C(=O)N[C@@H](CC(C)C)C(=O)N[C@@H](CCC(=O)O)C(=O)N[C@@H](CC(N)=O)C(=O)O)[C@@H](C)O
IC50 ([1]; DRBI *1302): 16.9 µM

CC[C@H](C)[C@H](NC(=O)[C@H](CC(=O)O)NC(=O)[C@H](Cc1ccccc1)NC(=O)[C@H](CC(N)=O)NC(=O)[C@H](CCCNC(=N)N)NC(=O)[C@H](CCCNC(=N)N)NC(=O)[C@H](CC(=O)O)NC(=O)[C@H](CCCCN)NC(=O)[C@H](CC(C)C)NC(=O)[C@@H](NC(=O)[C@H](Cc1ccc(O)cc1)NC(=O)[C@H](CCC(=O)O)NC(=O)[C@H](CC(C)C)NC(=O)[C@H](CCCNC(=N)N)NC(=O)CN)[C@@H](C)O)C(=O)O
IC50 ([2]; DRB4 *0101): 21.4 µM
IC50 ([1]; DRBI *1302): 1.47 µM

CC[C@H](C)[C@H](NC(=O)[C@H](Cc1ccc(O)cc1)NC(=O)[C@H](CC(=O)O)NC(=O)[C@@H](N)CCCCN)C(=O)N[C@@H](CC(C)C)C(=O)N[C@@H](CC(=O)O)C(=O)N[C@@H](CC(C)C)C(=O)N[C@@H](CCC(N)=O)C(=O)N1CCC[C@H]1C(=O)N[C@@H](CCC(=O)O)C(=O)N[C@H](C(=O)N[C@H](C(=O)N[C@@H](CC(=O)O)C(=O)N[C@@H](CC(C)C)C(=O)N[C@@H](Cc1c[nH]cn1)C(=O)O)[C@@H](C)O)[C@@H](C)O
IC50 ([3]; DRB1 *0101): 6410 nM

CC[C@H](C)[C@H](NC(=O)[C@H](CC(N)=O)NC(=O)[C@H](CO)NC(=O)[C@H](CC(=O)O)NC(=O)[C@H](CO)NC(=O)[C@H](C)NC(=O)CNC(=O)[C@H](Cc1ccc(O)cc1)NC(=O)[C@@H](NC(=O)[C@H](CC(C)C)NC(=O)[C@H](CO)NC(=O)[C@@H](N)CC(N)=O)C(C)C)C(=O)N[C@@H](Cc1ccc(O)cc1)C(=O)N[C@@H](CC(=O)O)C(=O)N[C@@H](CC(C)C)C(=O)O
IC50 ([3]; DRB1 *0101): 13100 nM

CSCC[C@H](NC(=O)[C@H](CC(=O)O)NC(=O)[C@H](Cc1ccc(O)cc1)NC(=O)[C@H](CC(C)C)NC(=O)[C@@H]1CCCN1C(=O)[C@H](Cc1c[nH]cn1)NC(=O)[C@@H]1CCCN1)C(=O)N[C@@H](CO)C(=O)N[C@@H](CC(C)C)C(=O)N[C@@H](CC(C)C)C(=O)N[C@@H](CCCCN)C(=O)N[C@@H](CC(N)=O)C(=O)N[C@@H](CCCNC(=N)N)C(=O)N[C@@H](Cc1ccccc1)C(=O)N[C@@H](CC(C)C)C(=O)O
IC50 ([3]; DRB1 *0101): 1320 nM

CC[C@H](C)[C@H](NC(=O)[C@H](CCC(N)=O)NC(=O)CNC(=O)[C@@H](NC(=O)[C@H](CCCNC(=N)N)NC(=O)[C@@H]1CCCN1C(=O)[C@H](CO)NC(=O)CNC(=O)[C@H](CC(=O)O)NC(=O)[C@H](CCC(=O)O)NC(=O)[C@H](CC(C)C)NC(=O)[C@@H](N)CCCNC(=N)N)[C@@H](C)O)C(=O)N[C@@H](Cc1ccccc1)C(=O)N[C@@H](CCCCN)C(=O)N[C@@H](CCC(N)=O)C(=O)O
IC50 [4]: > 33.3 µM
IC50 [5]: 35.1 µM
IC50 ([6]; DRB1 *0901): > 59500 nM
IC50 ([1]; DRBI *1302): > 17.9 µM
IC50 [7]: 76.7 µM

CC[C@H](C)[C@H](NC(=O)[C@H](CCC(=O)O)NC(=O)[C@H](CCC(=O)O)NC(=O)[C@@H]1CCCN1C(=O)[C@@H](NC(=O)[C@H](CC(=O)O)NC(=O)[C@H](Cc1ccccc1)NC(=O)[C@H](CC(N)=O)NC(=O)[C@@H](N)CCCNC(=N)N)[C@@H](C)CC)C(=O)N[C@@H](CCCCN)C(=O)N[C@@H](CCC(N)=O)C(=O)N[C@@H](CC(C)C)C(=O)N[C@@H](CCC(N)=O)C(=O)N[C@@H](CCC(N)=O)C(=O)N[C@@H](Cc1ccccc1)C(=O)O
IC50 ([1]; DRBI *1302): > 15.4 µM

CC[C@H](C)[C@H](NC(=O)[C@@H](NC(=O)[C@H](CCCNC(=N)N)NC(=O)[C@H](CC(C)C)NC(=O)[C@@H]1CCCN1C(=O)[C@H](C)NC(=O)[C@H](C)NC(=O)[C@@H](N)CO)[C@@H](C)O)C(=O)N[C@H](C(=O)N[C@@H](C)C(=O)N[C@@H](CC(=O)O)C(=O)N[C@H](C(=O)N[C@@H](Cc1ccccc1)C(=O)N[C@@H](CCCNC(=N)N)C(=O)N[C@@H](CCCCN)C(=O)O)[C@@H](C)O)[C@@H](C)O
IC50 ([3]; DRB1 *0101): 1170 nM

CC[C@H](C)[C@H](NC(=O)[C@H](CC(C)C)NC(=O)[C@H](CC(C)C)NC(=O)[C@H](CC(C)C)NC(=O)[C@H](CS)NC(=O)[C@@H](NC(=O)[C@H](CCCNC(=N)N)NC(=O)[C@H](CC(C)C)NC(=O)[C@H](CC(C)C)NC(=O)[C@H](CCC(=O)O)NC(=O)[C@H](CC(C)C)NC(=O)[C@H](CC(N)=O)NC(=O)[C@@H](N)CO)[C@@H](C)CC)C(=O)N[C@@H](CCC(N)=O)C(=O)N[C@@H](CO)C(=O)O
IC50 ([3]; DRB1 *0101): 731 nM

CC(C)C[C@H](NC(=O)[C@@H](N)Cc1ccc(O)cc1)C(=O)N[C@H](C(=O)N[C@@H](CS)C(=O)NCC(=O)N[C@@H](CCC(=O)O)C(=O)N[C@@H](CCCNC(=N)N)C(=O)NCC(=O)N[C@@H](Cc1ccccc1)C(=O)N[C@@H](Cc1ccccc1)C(=O)N[C@@H](Cc1ccc(O)cc1)C(=O)N[C@H](C(=O)N[C@@H](CC(=O)O)C(=O)N[C@@H](CCCCN)C(=O)N[C@H](C(=O)O)[C@@H](C)O)[C@@H](C)O)C(C)C
IC50 ([3]; DRB1 *0101): 17300 nM

CC[C@H](C)[C@H](NC(=O)[C@H](CO)NC(=O)[C@H](CCC(=O)O)NC(=O)[C@H](CC(C)C)NC(=O)[C@@H](NC(=O)[C@H](C)NC(=O)CNC(=O)[C@H](Cc1ccc(O)cc1)NC(=O)[C@@H](NC(=O)[C@H](CO)NC(=O)[C@H](Cc1ccc(O)cc1)NC(=O)[C@H](CC(=O)O)NC(=O)[C@H](Cc1ccc(O)cc1)NC(=O)[C@@H](N)Cc1ccc(O)cc1)C(C)C)[C@@H](C)O)C(=O)N[C@H](C(=O)O)[C@@H](C)O
IC50 ([1]; DRBI *1302): 8.92 µM

ALQAQKEAISPPDAA
IC50 ([1]; read-out: DRBI *1302): > 12.4 µM

AYKDLCIVY
IC50 [8, 11]: 29 nM
IC50 [9, 12]: 5200 nM

CCTSICSLYQLENY
IC50 ([3]; read-out: DRB1 *0101): 11700 nM

CIVYRDCIAYAACHK
IC50 ([2]; read-out: DRB4 *0101): 2.58 µM
IC50 ([1]; read-out: DRBI *1302): 12.9 µM

EFAFKDLFVVYRDS
IC50 ([6]; read-out: DRB1 *0901): 1880 nM
IC50 ([3]; read-out: DRB1 *0101): 8940 nM

HQAISPRTLNSPAIF
IC50 ([1]; read-out: DRBI *1302): 1.04 µM

KKPLNEILIRCIICQ
IC50 ([3]; read-out: DRB1 *0101): 1360 nM

KPAVYTKVVHYRKWI
IC50 ([2]; read-out: DRB4 *0101): 4.58 µM
IC50 ([1]; read-out: DRBI *1302): 1.95 µM

LEDLLMGTLGIVCP
IC50 ([3]; read-out: DRB1 *0101): 104 nM

MLDLQPETTDLYCYE
IC50 ([3]; read-out: DRB1 *0101): 10100 nM

MTNLAALFPPEGVSI
IC50 ([1]; read-out: DRBI *1302): 1.31 µM

QKQLLTNHLINTPK
IC50 ([3]; read-out: DRB1 *0101): 675 nM
IC50 [10]: 228 nM

RFHMAGITF
IC50 [8, 11]: 1.4 nM
IC50 [9, 12]: 635 nM

RMTSLKINEL
IC50 [8, 13]: 14 nM
IC50 [8, 11]: 14 nM
IC50 [9, 14]: 40300 nM
IC50 [9, 12]: 40300 nM

RYITNIAGHY
IC50 [8, 13]: 0.93 nM
IC50 [9, 14]: 138 nM

RYRNIAGHY
IC50 [8, 11]: 0.93 nM
IC50 [9, 12]: 138 nM

SFFMNRFYI
IC50 [8, 11]: 1020 nM
IC50 [9, 12]: 200 nM

TCCYTCGTTVRLCIN
IC50 ([3]; read-out: DRB1 *0101): 1230 nM

TFCCKCDSTF
IC50 [8, 13]: 1170 nM

TLERPKTLSPQKNGV
IC50 ([3]; read-out: DRB1 *0101): 10100 nM

VAQVRGGMVFELANS
IC50 ([3]; read-out: DRB1 *0101): 228 nM

VASLLTTAEVVVTE
IC50 ([3]; read-out: DRB1 *0101): 604 nM

VYREQNPE
IC50 [8, 13]: 66000 nM
IC50 [9, 14]: 10000 nM

Read-outs that look alike come from different tables or passages of the source.
